## Yeast mating assay 2: variants of the scFv Ab-95

The measurements come from Engelhart et al. 2022 (doi:10.1038/s41597-022-01779-4) through the FLAb antibody collection.

Binding partner: SARS-CoV-2 spike HR2 peptide, sequence PDVDLGDISGINAS.

Ab-95 is the parent antibody, in scFv form: VH, then the linker GGGGSGGGGSGGGGS, then VL. The heavy chain is unchanged in all variants.
VH: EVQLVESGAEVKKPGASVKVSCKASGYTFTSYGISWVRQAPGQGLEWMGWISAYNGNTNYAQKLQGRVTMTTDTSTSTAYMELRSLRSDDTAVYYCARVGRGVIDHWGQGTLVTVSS
VL: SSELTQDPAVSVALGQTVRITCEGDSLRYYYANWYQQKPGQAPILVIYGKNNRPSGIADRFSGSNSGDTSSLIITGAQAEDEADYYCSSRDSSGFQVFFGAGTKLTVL

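Variants in AAYL52 differ from the parent at up to three CDR positions; double and triple changes were sampled at random. In AlphaSeq, yeast of one mating type display the scFv and yeast of the other type display the target. The frequency of each diploid, read from paired DNA barcodes, reflects how well the two displayed proteins bind. A regression on co-assayed BCL2-family reference pairs converts the normalised counts of each replicate to an apparent Kd. Mating was done three times.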

Sequences are complete VL domains. Numbers give log10(Kd / nM), so 0 is 1 nM and 3 is 1 µM. Smaller is tighter. "nd" means that the variant was in the library but no mating with the target was seen in that replicate; the authors take this as a sign of poor binding, and no number exists. In this assay the parent's reference entry averaged 2.31; its copy inside this library read 2.25. Nonspecific signal, from three strains lacking the peptide, appeared in 28% of pairings of library AAYL52, centred on 3.91 (5% of these signals below 2.90); values are not corrected for it. Also given: how often the same scFv was detected with the empty control strains, with their mean in brackets.

| VL | log10 Kd (nM) by replicate | signal with controls |
|---|---|---|
| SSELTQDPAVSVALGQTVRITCEGDSLTYYYAKWYQQKPGQAPILVIYGKNNRPSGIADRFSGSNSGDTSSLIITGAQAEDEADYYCSSRDCSGFQVFFGAGTKLTVL | 4.40 nd nd | 6 of 9 (3.82) |
| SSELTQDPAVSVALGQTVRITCEGDSWRYYYANWYQQKPGQAPILVIYGKRNRPSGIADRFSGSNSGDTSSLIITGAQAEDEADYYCKSRDSSGFQVFFGAGTKLTVL | 3.12 nd nd | 3 of 9 (3.74) |
| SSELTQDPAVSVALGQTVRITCEGDSLRYYYDNWYQQKPGQAPILVIYGKNNRPQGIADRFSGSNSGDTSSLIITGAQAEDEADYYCSSRDSSGFNVFFGAGTKLTVL | nd 4.79 nd | 1 of 9 (4.98) |
| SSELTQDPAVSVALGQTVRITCEFDSMRYYYANWYQQKPGQAPILVIYGKNNTPSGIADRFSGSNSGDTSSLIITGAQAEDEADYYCSSRDSSGFQVFFGAGTKLTVL | 3.79 5.32 nd | 3 of 9 (4.25) |
| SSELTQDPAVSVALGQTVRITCEGDSLRYYYAAWYQQKPGQAPILVIYGKNNRISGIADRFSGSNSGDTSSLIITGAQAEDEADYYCSSRDSSGFPVFFGAGTKLTVL | nd nd nd | 4 of 9 (3.87) |
| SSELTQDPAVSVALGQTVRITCEGDSSCYYYANWYQQKPGQAPILVIYGKNNRPSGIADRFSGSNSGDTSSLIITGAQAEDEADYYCSSRDSSGRQVFFGAGTKLTVL | 3.23 3.31 3.95 | 3 of 9 (4.37) |
| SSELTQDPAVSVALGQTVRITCEGDSLRYYYANWYQQKPGQAPILVIYGKNNRPCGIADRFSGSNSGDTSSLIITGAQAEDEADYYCCSRDSSGFPVFFGAGTKLTVL | nd 5.73 nd | 1 of 9 (2.90) |
| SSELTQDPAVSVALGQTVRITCMGDSLRYYYANWYQQKPGQAPILVIYGKNNRPSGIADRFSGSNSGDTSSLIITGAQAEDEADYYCRSRDSDGFQVFFGAGTKLTVL | 2.88 5.41 nd | 1 of 9 (3.66) |
| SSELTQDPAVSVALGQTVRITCEGCSLRYYYANWYQQKPGQAPILVIYGKNNMPNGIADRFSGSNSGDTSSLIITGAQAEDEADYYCSSRDSSGFQVFFGAGTKLTVL | 4.08 4.37 nd | 5 of 9 (4.32) |
| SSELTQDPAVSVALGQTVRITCEGDSNRYYYANWYQQKPGQAPILVIYGKWERPSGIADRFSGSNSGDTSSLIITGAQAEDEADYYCSSRDSSGFQVFFGAGTKLTVL | nd nd nd | 3 of 9 (3.63) |
| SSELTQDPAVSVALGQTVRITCEGDSLAYYEANWYQQKPGQAPILVIYGKNNRPSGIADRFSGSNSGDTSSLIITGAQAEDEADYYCSSRDSSGFQVFFGAGTKLTVL | 1.42 1.38 1.01 | 8 of 9 (4.33) |
| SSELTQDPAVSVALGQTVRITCEGDSLRYYYANWYQQKPGQAPILVIYGKNHRPSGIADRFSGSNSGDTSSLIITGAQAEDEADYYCSSRSSSGFQVDFGAGTKLTVL | 3.15 2.91 2.80 | 4 of 9 (4.31) |
| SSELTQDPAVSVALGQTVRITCEGDSLRGYYANWYQQKPGQAPILVIYGKNNTPSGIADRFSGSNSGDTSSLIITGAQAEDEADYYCSSRDSSGFQVFFGAGTKLTVL | 2.33 1.93 1.78 | 2 of 9 (3.16) |
| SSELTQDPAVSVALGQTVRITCELDSTRYYYANWYQQKPGQAPILVIYGKFNRPSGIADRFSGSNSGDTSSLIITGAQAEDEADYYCSSRDSSGFQVFFGAGTKLTVL | nd nd nd | 2 of 9 (3.87) |
| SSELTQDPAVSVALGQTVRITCEGDSLRYYYANWYQQKPGQAPILVIYGKNNRPSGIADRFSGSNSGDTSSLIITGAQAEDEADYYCSSRFSSSFQRFFGAGTKLTVL | 2.45 2.09 2.10 | 2 of 9 (4.45) |
| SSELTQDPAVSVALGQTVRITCGGDSLRYYYANWYQQKPGQAPILVIYGKNNRPYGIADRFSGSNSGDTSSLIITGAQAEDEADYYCSFRDSSGFQVFFGAGTKLTVL | 2.78 2.87 nd | 5 of 9 (3.95) |
| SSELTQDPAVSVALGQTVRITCEGDSLGYRYANWYQQKPGQAPILVIYGKNNGPSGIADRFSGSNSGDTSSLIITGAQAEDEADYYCSSRDSSGFQVFFGAGTKLTVL | 3.32 2.71 2.30 | 1 of 9 (4.68) |
| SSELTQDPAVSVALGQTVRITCEGDSLRYYYANWYQQKPGQAPILVIYRKWNRPSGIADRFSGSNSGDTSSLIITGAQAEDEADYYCSSRDSSGFQLFFGAGTKLTVL | nd nd nd | 0 of 9 |
| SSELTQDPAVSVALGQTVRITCEGDSYRYYYFNWYQQKPGQAPILVIYGKNNRPSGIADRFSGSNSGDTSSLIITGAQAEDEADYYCSSRDPSGFQVFFGAGTKLTVL | 3.46 2.59 2.81 | 5 of 9 (3.98) |
| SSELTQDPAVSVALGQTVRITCEGDSLRYYYANWYQQKPGQAPILVIYGNNFRPSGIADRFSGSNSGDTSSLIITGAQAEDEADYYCSSRDSSGFQVFFGAGTKLTVL | 2.73 2.90 2.57 | 3 of 9 (4.26) |
| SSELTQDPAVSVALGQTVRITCEGISLRYYYANWYQQKPGQAPILVIYHKNNRPSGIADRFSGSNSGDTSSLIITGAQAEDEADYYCSSWDSSGFQVFFGAGTKLTVL | 3.61 3.94 4.28 | 2 of 9 (3.80) |
| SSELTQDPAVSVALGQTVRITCRGDTLRYYYANWYQQKPGQAPILVIYGKNNRPSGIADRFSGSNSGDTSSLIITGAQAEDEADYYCSSRDSSGFNVFFGAGTKLTVL | 2.69 2.38 2.61 | 2 of 9 (3.59) |
| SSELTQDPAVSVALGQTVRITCEGDSLRYYYANWYQQKPGQAPILVIYGPNNRPSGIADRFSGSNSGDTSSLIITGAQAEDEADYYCSSADSSGFEVFFGAGTKLTVL | 3.00 2.37 2.66 | 3 of 9 (3.92) |
| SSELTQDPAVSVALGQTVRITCEGDSLWYYYPNWYQQKPGQAPILVIYKKNNRPSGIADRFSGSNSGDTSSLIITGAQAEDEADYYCSSRDSSGFQVFFGAGTKLTVL | nd 3.64 nd | 5 of 9 (3.85) |
| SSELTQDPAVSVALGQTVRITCEGDNLRYYYQNWYQQKPGQAPILVIYGKNNRPWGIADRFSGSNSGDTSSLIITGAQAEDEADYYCSSRDSSGFQVFFGAGTKLTVL | 3.36 3.13 4.78 | 4 of 9 (3.92) |

For reference, 2 entries of the list once more:

| VL | log10 Kd (nM) by replicate | signal with controls |
|---|---|---|
| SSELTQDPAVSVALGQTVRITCEGDSWRYYYANWYQQKPGQAPILVIYGKRNRPSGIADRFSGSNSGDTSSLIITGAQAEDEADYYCKSRDSSGFQVFFGAGTKLTVL | 3.12 nd nd | 3 of 9 (3.74) |
| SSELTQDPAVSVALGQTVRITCEGDSSCYYYANWYQQKPGQAPILVIYGKNNRPSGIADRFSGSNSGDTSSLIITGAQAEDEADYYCSSRDSSGRQVFFGAGTKLTVL | 3.23 3.31 3.95 | 3 of 9 (4.37) |